Data: patent US6495673

Experiments:
[1] = biological target: biotin-labeled … peptide (SEQ ID NO: 15); test: biopanning, 1 round: capture through biotin-peptide on streptavidin beads, EDTA elution; against GST-fd phage (pFV7)
[2] = biological target: biotin-labeled … peptide (SEQ ID NO: 15); test: biopanning, 2 rounds: capture through biotin-peptide on streptavidin beads, EDTA elution; against GST-fd phage (pFV7)
[3] = biological target: biotin-labeled … peptide (SEQ ID NO: 15); test: competition ELISA over time with 1000-fold excess of unlabeled peptide

Substance | Enrichment [1] | Enrichment [2] | time for which the complex is stable [3]
phage displaying glutathione S-transferase-calmodulin fusion (from vector pSD3) (from UniProt P0DP23 2-149) | > 40000 fold | > 2e+07 fold | 
Calmodulin-tagged phage DN323 (calmodulin displayed as a gene III fusion on filamentous phage, from phagemid pDN323) (from UniProt P0DP23 2-149) |  |  | > 2 h
